{"sequences": {"note": "The chains behind the UniProt entries cited, without tags or fusion partners. Residues count along the entry.", "UniProt P03452, 18-342 limits assumed": "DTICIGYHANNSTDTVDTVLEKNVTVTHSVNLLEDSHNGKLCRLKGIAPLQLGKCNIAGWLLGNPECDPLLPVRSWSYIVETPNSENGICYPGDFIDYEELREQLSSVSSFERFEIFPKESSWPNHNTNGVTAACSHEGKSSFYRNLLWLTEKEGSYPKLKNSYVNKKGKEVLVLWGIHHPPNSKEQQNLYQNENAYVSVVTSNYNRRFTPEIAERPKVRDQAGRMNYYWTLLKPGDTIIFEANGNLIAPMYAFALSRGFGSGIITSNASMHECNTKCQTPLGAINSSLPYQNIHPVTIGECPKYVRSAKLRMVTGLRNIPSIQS", "UniProt P03452, 344-565 limits assumed": "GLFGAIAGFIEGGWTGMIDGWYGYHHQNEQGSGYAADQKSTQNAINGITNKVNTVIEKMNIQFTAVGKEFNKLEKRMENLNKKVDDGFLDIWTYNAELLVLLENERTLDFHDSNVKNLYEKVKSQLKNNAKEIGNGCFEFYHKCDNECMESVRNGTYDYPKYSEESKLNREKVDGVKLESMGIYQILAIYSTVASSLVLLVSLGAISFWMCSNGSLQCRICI"}, "source": "paper PMC10088587", "about": "(Archives of Microbiology, 2023)", "target": "virus surface HA glycoprotein (Influenza A virus, UniProt P03452)", "test": "Hemagglutination inhibition assay", "assay_type": "biochemical", "conditions": "twofold dilutions from CC50, 4 HA unit of virus, 1% cRBC", "note": "Structures can show the parent of a compound that is named as a salt.", "data": [{"smiles": "NC12CC3CC(CC(C3)C1)C2", "note": "[Ama, amantadine hydrochloride, reference compound]", "values": [{"measurement": "Dilution to give HI +", "result": 2, "unit": "nd"}]}]}
